Laboratory results as given in PMC4250329 (Bioorganic & medicinal chemistry letters, 2014).

System: 686LN
Assay: Growth inhibition of HNSCC cell line 686LN
Assay type: cell-based
Conditions: read-out: 686LN IC50

CC(C)(C)c1nc2c3ccc(F)cc3c3c(=O)[nH]ccc3c2[nH]1 [compound 6, reference compound]
IC50: > 5 µM
